The target of experiment [1] is T1, Aromatase (Homo sapiens, UniProt P11511).
Experiment [2] concerns the target T1, Aromatase. This is another data set of the same source.

The chains behind the UniProt entries cited, without tags or fusion partners. Where a name states a change or a piece, a line headed by the entry shows the natural chain unless it says otherwise.
UniProt P11511: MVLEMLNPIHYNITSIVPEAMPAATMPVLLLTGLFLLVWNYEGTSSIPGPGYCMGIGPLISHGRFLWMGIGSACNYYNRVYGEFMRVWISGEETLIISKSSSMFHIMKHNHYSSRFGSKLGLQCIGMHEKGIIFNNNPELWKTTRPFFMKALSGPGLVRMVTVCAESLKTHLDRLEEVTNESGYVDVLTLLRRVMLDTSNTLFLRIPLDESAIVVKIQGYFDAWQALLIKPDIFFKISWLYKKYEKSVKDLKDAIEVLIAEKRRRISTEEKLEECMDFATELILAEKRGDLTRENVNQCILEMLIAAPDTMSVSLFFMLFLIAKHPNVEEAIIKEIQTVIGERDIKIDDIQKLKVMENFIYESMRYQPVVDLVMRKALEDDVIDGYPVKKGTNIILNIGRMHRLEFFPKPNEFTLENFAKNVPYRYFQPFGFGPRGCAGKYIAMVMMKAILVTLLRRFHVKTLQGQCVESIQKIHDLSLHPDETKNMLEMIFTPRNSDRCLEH

Results on two compounds are retold here after ChEMBL document CHEMBL1129695, “Synthesis and structure-activity relationships of 6-substituted androst-4-ene analogs as aromatase inhibitors” (J Med Chem, 1996).

The compound `C[C@]12CCCC=C1CC[C@@H]1[C@@H]2CC[C@]2(C)C(=O)CC[C@@H]12` displayed an inhibitory constant (Ki) in experiment [1] of 6.8 nM. As to `CC12CCC3C(C[C@H](O)C4=CCCCC43C)C1CCC2=O` (stereo partly drawn), in experiment [2], the IC50 is 190 nM. For the same compound, the Ki in experiment [1] came out at 21 nM.
